The source of these data is PubChem BioAssay AID720519 (National Center for Advancing Translational Sciences (NCATS), 2013).

Each structure is given as a SMILES string. The list shows a part of the results, in another mix than the full data. Inconclusive results are not listed. Activity calls are given as the source filed them. Calls come from the whole dose curve; as a rule, active = well fitted activation curve with a large enough effect; inconclusive = small, poorly fitted or top-dose-only effect; inactive = flat fitted curve, though single readings scatter.

A short description of the assay: qHTS for Inhibitors of Cell Surface uPA Generation: Confirmatory Assay for Cherry-picked Compounds. Note: 0% is about no effect. Particulars: cell surface uPA activity generation, qHTS confirmation; at 115 µM (top of the series). The text has this: The overall objective of this project is to perform a quantitative high throughput screen (qHTS) to identify novel compounds that inhibit the generation of cell surface urokinase activity. The urokinase plasminogen activator (uPA) is one of the two primary endogenous systems that mediate plasminogen activation into plasmin. Members of this system, including uPA and its receptor (uPAR), are overexpressed in several malignant tumors. This system plays a major role in adhesion, migration, invasion and metastasis of cancer cells. Small molecule inhibitors of the uPA system will serve as probes to understand the molecular mechanisms of the uPA cascade and better understanding the micro-environmental circumstances that facilitate the activation of plasminogen by uPA, and finally may provide novel candidate agents for anticancer drug therapy.
[…] Activation of cell viability (increase in luminescence signal) due to inhibition of the cell surface uPA generation is the desired outcome of this assay. […]
Cultured RAW 264.7 were dispensed into 1536-well clear bottom, white walled tissue culture plates at a density of 4000 cells/well and were incubated overnight (12-16 h) at 37 C in a 5% CO2 incubator. […] Three microliter of PerkinElmer ATPlite was then added to each well and luminescence was detected using the PerkinElmer ViewLux plate reader for a 5 sec exposure.

With `O=C(O)CNc1ccc([As](=O)(O)O)cc1`, the inhibition was inactive: 0.952%.
